B1: CXCR7-SmBiT [not stated] / LgBiT-βarr1 [not stated] (parent)
chain 1: MGDKGTRVFKKASPNGKLTVYLGKRDFVDHIDLVDPVDGVVLVDPEYLKERRVYVTLTCAFRYGREDLDVLGLTFRKDLFVANVQSFPPAPEDKKPLTRLQERLIKKLGEHAYPFTFEIPPNLPCSVTLQPGPEDTGKACGVDYEVKAFCAENLEEKIHKRNSVRLVIRKVQYAPERPGPQPTAETTRQFLMSDKPLHLEASLDKEIYYHGEPISVNVHVTNNTNKTVKKIKISVRQYADICLFNTAQYKCPVAMEEADDTVAPSSTFCKVYTLTPFLANNREKRGLALDGKLKHEDTNLASSTLLREGANREILGIIVSYKVKVKLVVSRGGLLGDLASSDVAVELPFTLMHPKPKEEPPHREVPENETPVDTNLIELDTNDDDIVFEDFARQRLKGMKDDKEEEEDGTGSPQLNNR
chain 2: MDLHLFDYSEPGNFSDISWPCNSSDCIVVDTVMCPNMPNKSVLLYTLSFIYIFIFVIGMIANSVVVWVNIQAKTTGYDTHCYILNLAIADLWVVLTIPVWVVSLVQHNQWPMGELTCKVTHLIFSINLFGSIFFLTCMSVDRYLSITYFTNTPSSRKKMVRRVVCILVWLLAFCVSLPDTYYLKTVTSASNNETYCRSFYPEHSIKEWLIGMELVSVVLGFAVPFSIIAVFYFLLARAISASSDQEKHSSRKIIFSYVVVFLVCWLPYHVAVLLDIFSILHYIPFTCRLEHALFTALHVTQCLSLVHCCVNPVLYSFINRNYRYELMKAFIFKYSAKTGLTKLIDASRVSETEYSALEQSTK

The variants in the test derive from B1. The test can be described thus: βarr1 recruitment assay (CXCR7-SmBiT + LgBiT-βarr1), agonist dose-response. Conditions: with LgBiT-βarr1, value read at the highest dose, log M about -5 (10 µM), read off a plot.

chain 2 MDLHLFDYSEPGNFSDISWPCNSSDCIVVDTVMCPNMPNKSVLLYTLSFIYIFIFVIGMIANSVVVWVNIQAKTTGYDTHCYILNLAIADLWVVLTIPVWVVSLVQHNQWPMGELTCKVTHLIFSINLFGSIFFLTCMSVDRYLSITYFTNTPSSRKKMVRRVVCILVWLLAFCVSLPDTYYLKTVTSASNNETYCRSFYPEHSIKEWLIGMELVSVVLGFAVPFSIIAVFYFLLARAISASSDQEKHSSRKIIFSYVVVFLVCWLPAHVAVLLDIFSILHYIPFTCRLEHALFTALHVTQCLSLVHCCVNPVLYSFINRNYRYELMKAFIFKYSAKTGLTKLIDASRVSETEYSALEQSTK [chain 2 Y268A]: the response (fold over unstimulated) is, setting by setting: (stimulation with VUF10661) 1.2; (stimulation with VUF11418) 2.3.

For chain 2 MDLHLFDYSEPGNFSDISWPCNSSDCIVVDTVMCPNMPNKSVLLYTLSFIYIFIFVIGMIANSVVVWVNIQAKTTGYDTHCYILNLAIADLWVVLTIPVWVVSLVQHNQWPMGELTCKVTHLIFSINAFGSIFFLTCMSVDRYLSITYFTNTPSSRKKMVRRVVCILVWLLAFCVSLPDTYYLKTVTSASNNETYCRSFYPEHSIKEWLIGMELVSVVLGFAVPFSIIAVFYFLLARAISASSDQEKHSSRKIIFSYVVVFLVCWLPYHVAVLLDIFSILHYIPFTCRLEHALFTALHVTQCLSLVHCCVNPVLYSFINRNYRYELMKAFIFKYSAKTGLTKLIDASRVSETEYSALEQSTK [chain 2 L128A], the response (fold over unstimulated) (stimulation with VUF10661) stood at 1.5 and the response (fold over unstimulated) (stimulation with VUF11418) was determined as 7.2.

(Values after PMC11953467.)
